The values that follow are results of earlier work, collected in US20070254903A1, “Novel Spiroindoline or Spiroisoquinoline Compounds, Methods of Use and Compositions Thereof” (ARENA PHARMACEUTICALS, INC., priority 2003, published 2007).

Protein sequences, listed by entry. Tags and fused reporters are not part of them.
UniProt Q9GZQ6, whole entry, species assumed: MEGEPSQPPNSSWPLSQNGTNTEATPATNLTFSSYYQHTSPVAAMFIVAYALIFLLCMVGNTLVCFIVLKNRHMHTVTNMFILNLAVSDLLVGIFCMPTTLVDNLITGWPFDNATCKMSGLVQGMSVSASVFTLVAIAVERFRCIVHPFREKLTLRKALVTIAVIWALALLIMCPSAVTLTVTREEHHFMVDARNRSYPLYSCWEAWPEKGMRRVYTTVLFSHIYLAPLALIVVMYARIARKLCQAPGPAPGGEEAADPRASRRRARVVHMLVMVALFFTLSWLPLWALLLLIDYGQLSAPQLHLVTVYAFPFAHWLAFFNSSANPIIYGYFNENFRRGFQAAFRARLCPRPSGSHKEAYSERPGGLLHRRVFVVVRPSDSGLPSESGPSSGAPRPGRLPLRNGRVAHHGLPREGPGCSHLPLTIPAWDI
UniProt Q9Y5X5, whole entry, species assumed: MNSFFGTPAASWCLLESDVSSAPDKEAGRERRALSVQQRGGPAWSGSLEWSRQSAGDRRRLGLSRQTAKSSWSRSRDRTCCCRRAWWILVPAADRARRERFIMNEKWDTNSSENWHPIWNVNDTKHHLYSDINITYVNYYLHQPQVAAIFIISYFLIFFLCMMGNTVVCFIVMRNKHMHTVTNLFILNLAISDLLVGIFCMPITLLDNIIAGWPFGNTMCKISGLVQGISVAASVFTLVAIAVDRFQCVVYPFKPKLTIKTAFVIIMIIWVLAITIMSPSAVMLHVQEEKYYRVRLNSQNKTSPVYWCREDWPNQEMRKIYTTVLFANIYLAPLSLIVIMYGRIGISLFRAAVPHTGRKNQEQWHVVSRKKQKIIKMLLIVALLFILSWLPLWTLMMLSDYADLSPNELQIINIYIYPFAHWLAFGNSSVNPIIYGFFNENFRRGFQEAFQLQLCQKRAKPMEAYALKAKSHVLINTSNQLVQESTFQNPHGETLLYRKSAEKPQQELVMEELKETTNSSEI

Series [1] has as its target NPFF1 (Homo sapiens, UniProt Q9GZQ6). Conditions: Bonini et al. 2000; Elshourbagy et al. 2000; cited from earlier work.
Series [2] concerns the target NPFF2 (Homo sapiens, UniProt Q9Y5X5). Conditions: Bonini et al. 2000; Elshourbagy et al. 2000; cited from earlier work.

Regarding “NPFF: "a peptide called NPFF" that binds the Mas receptor "fairly weakly" and with high affinity to NPFF1 and NPFF2”, the Kd is 1.3 nM in series [1] and 0.3 nM in series [2].
